Measured values taken from PubChem BioAssay AID1224905 (ICCB-Longwood Screening Facility, Harvard Medical School, 2016).
About 880 (0.42%) of roughly 210,000 compounds were called active.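 Rule for the calls: active = replicate mean at 85% of control or lower with very high polarization wells dropped (limit read from the data); inactive = the rest.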 This excerpt belongs to a sample that is enriched for actives.

Amino acid sequences for entries named in this document (tags omitted).
UniProt P08753, whole entry, looked up: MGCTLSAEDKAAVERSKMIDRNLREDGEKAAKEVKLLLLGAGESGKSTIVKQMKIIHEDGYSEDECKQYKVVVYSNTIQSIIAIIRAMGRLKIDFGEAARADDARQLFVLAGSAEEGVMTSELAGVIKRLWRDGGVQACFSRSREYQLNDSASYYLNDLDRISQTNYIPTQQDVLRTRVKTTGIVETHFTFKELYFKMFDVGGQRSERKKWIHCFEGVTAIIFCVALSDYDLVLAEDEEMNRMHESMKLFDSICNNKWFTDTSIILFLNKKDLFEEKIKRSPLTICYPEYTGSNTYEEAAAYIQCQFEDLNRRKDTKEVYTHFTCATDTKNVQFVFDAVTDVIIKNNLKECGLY

Each compound was assayed against Guanine nucleotide-binding protein G(i) subunit alpha-3 (Rattus norvegicus) (UniProt P08753) (assay: inhibitors of GIV peptide binding to Galpha-i3, primary screen, biochemical, fluorescence polarization, FITC-GIV GBA peptide, rat Galphai3 (AID 1224905;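 note: lower values mean more displacement of the GIV peptide from Galpha-i3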)). Details: 90 min, hits give low values, scaled: aluminum fluoride 0%, vehicle 100%.

Percent of control (FP), active:
O=C(O)c1c2ccccc2[nH]c2c1oc1cc(=O)ccc12 81.8%
COC(=O)Cn1nc2c(-c3nc(-c4ccc(Cl)cc4)no3)cccn2c1=O 53.6%
O=c1c(-c2cc3ccccc3o2)[n+]([O-])c2ccccc2n1O 9.86%
COc1ccc(N=Nc2c(-c3ccc(OC)cc3)[nH]oc2=O)cc1 49%
C/C(=N\c1nc2ccccc2n1C)c1cc(Cl)ccc1O 49.3%
Cc1cc(C)c2c(N)c(-c3n[nH]c(=S)n3C)sc2n1 -53.5%
N#C/C(=C/c1ccc(N2CCCCC2)o1)C(=O)NCCc1c[nH]c2ccccc12 -90.3%
Cc1ccc2nc(/C(C#N)=C/c3ccc(-c4ccc(C(=O)OC(C)C)cc4)o3)[nH]c2c1 -57.6%
Nc1ccc2c3c(cccc13)C(=O)NC2=O -7.99%
CCN1C(=O)c2cccc3c(NC(=S)NC(=O)c4ccccc4)ccc1c23 -23.8%

Percent of control (FP), inactive:
O=C(CSc1nnc2ccc(C(=O)NCc3ccccc3)cn12)Nc1ccccc1Br 95.4%
CC(=O)Nc1cccc(NC(=O)c2sc3ncn(CC(=O)Nc4ccc(C)c(Cl)c4)c(=O)c3c2C)c1 107%
CC1(C)CC(=O)C2=C(C1)OC1=C(C(=O)CC(C)(C)C1)C2c1ccc(Cl)cc1 107%
Cn1cc(S(=O)(=O)N2CCCCC2)cc1C(=O)N1CCc2ccccc2C1 107%
COC(=O)c1ccc(C2C(S(=O)(=O)c3ccccc3)=C(O)C(=O)N2c2cccc(C)c2)cc1 (stereo not drawn) 101%
CCCCN1C(=O)C(C)(C(=O)N2CCN(C)CC2)Oc2cccnc21 (stereo not drawn) 101%
O=C(CCN1CCOCC1)Nc1cc(C(=O)Nc2ccc(F)c(F)c2)ccc1N1CC2CC(C1)c1cccc(=O)n1C2 (stereo not drawn) 115%
CCCCN(C)C(=O)CCn1c(=S)[nH]c2c(oc3ccccc32)c1=O 100%
COC(=O)c1c(C)c(=O)[nH]c2ccccc12 102%
CCn1cc(CCN2CCN(S(=O)(=O)c3ccc4c(c3)CCC4)CC2)c2cccnc21 108%
CCN(Cc1ccccc1)C(=O)Cn1c(=O)n(CCc2ccccc2)c(=O)c2ccccc21 102%
O=S(=O)(c1cc(-c2noc(C3CC3)n2)cs1)N1CCN(c2ccc(Cl)cc2)CC1 104%
C=CCNc1ncccc1-c1nc(-c2ccc(Cl)cc2)no1 96.7%
CCOc1ccc(NC(=O)Nc2ccc(Cn3cnc(-c4nc(-c5ccc(Cl)cc5)no4)c3)cc2)cc1 102%
CCCCN(CC)C(=O)c1c[nH]c2ccc(S(=O)(=O)N(C)c3ccc(Br)cc3)cc2c1=O 97.2%
O=C1Nc2ccccc2O/C1=C\c1ccc(C(=O)NCc2ccco2)cc1 103%
CCOc1ccc(NC(=O)Nc2cccc(OCc3cc(=O)n4ccccc4n3)c2)cc1 100%
COc1ccc2oc(=O)cc(-c3cc4ccccc4o3)c2c1 104%
Cn1c(SCC(N)=O)nnc1-c1cc2ccccc2o1 98.6%
Cc1ccc([N+](=O)[O-])cc1S(=O)(=O)n1c(SCc2ccccc2F)nc2ccccc21 104%
COc1cccc(N=Nc2c(O)[nH]c(=O)[nH]c2=O)c1 100%
COc1ccc(-c2ocnc2C(=O)O)cc1 108%
Cc1ccc(-c2nnc3ccccc3c2C(=O)Nc2ccc3c(c2)OCCO3)cc1 101%
COC(=O)/C=C1\Nc2ccccc2SC1=O 103%
O=C1c2ccccc2S(=O)(=O)N1CC(O)COc1ccc2ccccc2c1 (stereo not drawn) 103%
Cn1c(NC(=O)c2ccccc2)nc2ccccc21 97.8%
Cn1c(=O)c(C(=O)NCCc2ccc(Cl)cc2)nc2ccccc21 105%
Cn1cc(C(=O)Nc2ccc(Br)cc2)c2[nH]c(=O)n(-c3ccccc3)c(=O)c21 101%
COc1ccc(NC(=O)c2nn(C)c3c2CSc2ccc(Cl)cc2-3)cc1OC 102%
COc1ccc(NC(=O)C2CCN(S(=O)(=O)c3cc4c(cc3C)NC(=O)CO4)CC2)cc1OC 98%
O=S(=O)(c1ccccc1Cl)N1CCN(c2ncnc3c2nnn3-c2ccc(F)cc2)CC1 98.7%
Cc1cc(C)c2c(n1)sc1c(=O)n(C)cnc12 103%
COc1ccc(-c2cc(-c3nc4c5sc6nc(C)cc(C)c6c5ncn4n3)[nH]n2)cc1 102%
Cc1ccc(N2C(=O)C3C4c5ccccc5C(C=O)(c5ccccc54)C3C2=O)c(Br)c1 (stereo not drawn) 123%
COCCNC(=O)c1ccccc1NC(=O)c1ccc(F)cc1 104%
COC(=O)CN1C(c2ccccc2)=Nc2ccc(Br)cc2C1c1ccccc1 (stereo not drawn) 107%
COc1ccc(CNS(=O)(=O)c2ccc(F)c(C(=O)Nc3ccc(Br)cc3F)c2)cc1 111%
O=C(NCCc1c[nH]c2ccccc12)c1cc(=O)nc2sc(N3CCCC3)nn12 106%
Cc1nn(CC(=O)NCCc2c[nH]c3ccccc23)c(=O)c2noc(C)c12 98.7%
CCCCN(CC)c1ncnc2ccc(C)cc12 101%
Cc1ccc2nc(/C(C#N)=C/c3ccccc3F)[nH]c2c1 113%
N#CC(C#N)=Cc1ccc(-c2cccc(C(=O)O)c2)o1 102%
O=C(OCCN1CCCCC1)C1COc2ccccc2O1 (stereo not drawn) 102%
CN(Cc1ccccc1)S(=O)(=O)c1ccc2c3c(cccc13)C(=O)N2 104%
CC1CN(S(=O)(=O)c2ccc3c4c(cccc24)C(=O)N3)CC(C)O1 (stereo not drawn) 96.8%
C#CCSc1c(CCCC)cnc2c1c(=O)n(C)c(=O)n2C 106%
COC(CNC(=O)c1cn(C)c2ccc(S(=O)(=O)N3CCCC3)cc2c1=O)OC 106%
CCOc1ccc(/C(O)=C2/C(=O)C(=O)N(CCN3CCOCC3)C23C(=O)N(C)c2ccccc23)cc1 (stereo not drawn) 107%
Cc1cc(Br)ccc1NC(=O)Cn1c2ccccc2c(=O)c2ccccc21 99.8%
CCN1C(=O)c2cccc3c(S(=O)(=O)N4CCN(CCO)CC4)ccc1c23 108%
CCN1C(=O)c2cccc3c(S(=O)(=O)N4CCc5ccccc54)ccc1c23 101%
Cc1cc(C)n(C(=O)c2sccc2S(=O)(=O)N(C)c2ccc(C)c(Cl)c2)n1 95.4%
O=C(NCC(c1ccccc1Cl)N1CCCC1)c1cc(-c2ccccc2)on1 (stereo not drawn) 113%
